Consider one compound from ChEMBL document CHEMBL4256943, “Inhibitors of cyp17a1” (2016).

The species named for this assay is Homo sapiens. Nature of the assay: Selectivity factor, ratio of IC50 for human membrane bound C-terminal His4-tagged CYP21A2delta19H mutant to IC50 for human membrane bound C-terminal His4-tagged CYP17A1delta19H mutant.

Consider `C[C@]12CC[C@H](O)CC1=C(C#N)C[C@@H]1[C@@H]2CC[C@]2(C)C(c3cccnc3)=CC[C@@H]12`, for which the Ratio IC50 worked out at 3.1.
